The source of these data is US8952177B2 (Janssen Pharmaceutica NV, priority 2013, dated 2015).

By UniProt entry, the sequences of proteins in these tests, tags left out. Where a name states a change or a piece, a line headed by the entry shows the natural chain unless it says otherwise.
UniProt P20292: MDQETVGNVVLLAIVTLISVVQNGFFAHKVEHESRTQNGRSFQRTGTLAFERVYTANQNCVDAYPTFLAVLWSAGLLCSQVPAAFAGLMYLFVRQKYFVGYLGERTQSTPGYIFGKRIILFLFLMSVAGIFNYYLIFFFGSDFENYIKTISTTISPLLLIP

Counter-ions that a name gives are not always drawn.

In the experiment the target is human FLAP (Homo sapiens (Human), UniProt P20292). The experiment can be described thus: FLAP binding assay (HTRF format). Particulars: human FLAP-containing Sf-9 membranes, 25 nM HTRF ligand, 2 h; average of runs; read-out: FLAP Binding wild type HTRF Ki.
Turning to `Cc1ccc(COc2ccc3nc(C4CCCC[C@H]4C(=O)O)n(Cc4ccc(N5CC(F)(F)C5)cc4F)c3c2)nc1` (mixture of isomers) [Example 165, racemic cis-2-{1-[4-(3,3-Difluoroazetidin-1-yl)-2-fluorobenzyl]-6-[(5-methylpyridin-2-yl)methoxy]-1H-benzimidazol-2-yl}cyclohexanecarboxylic acid], the Ki was 11 nM.
The same measure for `CCC(CC)(Cc1nc2ccc(OCc3ccc(C)cn3)cc2n1Cc1ccc(OC(F)(F)F)c(F)c1)C(=O)O` [Example 30, 2-Ethyl-2-({1-[3-fluoro-4-(trifluoromethoxy)benzyl]-6-[(5-methylpyridin-2-yl)methoxy]-1H-benzimidazol-2-yl}methyl)butanoic acid]: approximately 80 nM; for `Cc1ccc(COc2ccc3nc(C4CCCC[C@H]4C(=O)O)n(Cc4ccc(N5CCC(F)(F)C5)cc4)c3c2)nc1` (mixture of isomers) [Example 152, racemic cis-2-{1-[4-(3,3-Difluoropyrrolidin-1-yl)benzyl]-6-[(5-methylpyridin-2-yl)methoxy]-1H-benzimidazol-2-yl}cyclohexanecarboxylic acid]: 2.4 nM; for `Cc1ccc(Cn2c([C@H]3CCCC[C@@H]3C(=O)O)nc3ccc(OCc4ccc(C)cn4)cc32)cc1` (racemic) [Example 120, racemic trans-2-{1-(4-Methylbenzyl)-6-[(5-methylpyridin-2-yl)methoxy]-1H-benzimidazol-2-yl}cyclohexanecarboxylic acid]: 13 nM.
Regarding `Cc1cnc(COc2ccc3nc([C@@H]4CCCC[C@@H]4C(=O)O)n(Cc4ccc(N5CCC(F)CC5)cc4F)c3c2)c(F)c1` (stereo in doubt) [Example 175, (1S*,2R*)-2-{1-[2-Fluoro-4-(4-fluoropiperidin-1-yl)benzyl]-6-[(3-fluoro-5-methylpyridin-2-yl)methoxy]-1H-benzimidazol-2-yl}cyclohexanecarboxylic acid], the Ki stood at 70 nM.
The same measure for `Cn1ccc(COc2ccc3nc([C@@H]4CCCC[C@@H]4C(=O)O)n(Cc4ccc(N5CCCCC5)cc4)c3c2)n1` (racemic) [Example 88, racemic cis-2-{6-[(1-Methyl-1H-pyrazol-3-yl)methoxy]-1-(4-piperidin-1-ylbenzyl)-1H-benzimidazol-2-yl}cyclohexanecarboxylic acid]: 32 nM; for `Cc1ccc(COc2ccc3nc([C@@H]4CCCC[C@@H]4C(=O)O)n(Cc4ccc(OC(F)(F)F)cc4)c3c2)nc1` (stereo in doubt) [Example 29, (1S*,2R*)-2-{6-[(5-Methylpyridin-2-yl)methoxy]-1-[4-(trifluoromethoxy)benzyl]-1H-benzimidazol-2-yl}cyclohexanecarboxylic acid]: approximately 2500 nM; for `Cc1ccc(COc2ccc3nc(C4CCCC[C@@H]4C(=O)O)n(Cc4ccc(Br)cc4)c3c2)nc1` (mixture of isomers) [Example 1, racemic cis-2-{1-(4-Bromobenzyl)-6-[(5-methylpyridin-2-yl)methoxy]-1H-benzimidazol-2-yl}cyclohexanecarboxylic acid]: 3.8 nM.
Regarding `Cc1ccc(COc2ccc3nc(C4CCCC[C@@H]4C(=O)O)n(Cc4ccc(Br)cc4)c3c2)nc1` (mixture of isomers) [Example 5, racemic trans-2-{1-(4-Bromobenzyl)-6-[(5-methylpyridin-2-yl)methoxy]-1H-benzimidazol-2-yl}cyclohexanecarboxylic acid as the TFA salt], the inhibitory constant (Ki) amounted to 6.4 nM.
The same measure for `COc1ncc(-c2ccc(Cn3c([C@H]4CCCC[C@H]4C(=O)O)nc4ccc(OCc5ccc(C)cn5)cc43)cc2)cn1` (racemic) [Example 144, racemic cis-2-{1-[4-(2-Methoxypyrimidin-5-yl)benzyl]-6-[(5-methylpyridin-2-yl)methoxy]-1H-benzimidazol-2-yl}cyclohexanecarboxylic acid]: 64 nM.

In general, Ki refers to the equilibrium dissociation constant of an inhibitor or competing ligand from its target.
